Tests used:
Assay type in all cases: cell membranes
[1] = target: Mu-type opioid receptor (Cavia porcellus) (UniProt P97266); assay: Potency index, ratio of morphine Ki to compound Ki for mu opioid receptor in guinea pig brain membranes
[2] = organism: Cavia porcellus; assay: Potency index, ratio of morphine Ki to compound Ki for delta opioid receptor in guinea pig brain membranes
[3] = target: Kappa-type opioid receptor (Cavia porcellus) (UniProt P41144); assay: Potency index, ratio of morphine Ki to compound Ki for kappa opioid receptor in guinea pig brain membranes

The chains behind the UniProt entries cited, without tags or fusion partners. Where a name states a change or a piece, a line headed by the entry shows the natural chain unless it says otherwise.
UniProt P97266, whole entry: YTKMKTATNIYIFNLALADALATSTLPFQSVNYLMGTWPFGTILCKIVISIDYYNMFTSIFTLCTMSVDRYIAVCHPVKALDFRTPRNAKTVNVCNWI
UniProt P41144: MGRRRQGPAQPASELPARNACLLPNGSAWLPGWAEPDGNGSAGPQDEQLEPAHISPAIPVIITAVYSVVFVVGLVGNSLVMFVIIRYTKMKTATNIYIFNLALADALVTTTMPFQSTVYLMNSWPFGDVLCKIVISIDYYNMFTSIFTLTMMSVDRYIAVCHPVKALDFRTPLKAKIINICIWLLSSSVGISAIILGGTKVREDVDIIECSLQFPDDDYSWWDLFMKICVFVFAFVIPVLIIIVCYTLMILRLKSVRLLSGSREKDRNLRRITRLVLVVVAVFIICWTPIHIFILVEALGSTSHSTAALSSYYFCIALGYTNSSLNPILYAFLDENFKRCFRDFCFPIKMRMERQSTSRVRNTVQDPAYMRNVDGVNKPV

Measured: Ratio Ki

CC[C@@H]1CN2CC[C@@]3(O)C(=Nc4cccc(OC)c43)[C@@H]2C[C@@H]1/C(=C\OC)C(=O)OC
10: [1] | [2] | [3]

Reference: ChEMBL document CHEMBL4406853 (Eur J Med Chem, 2019)
